Experimental data: patent US5980914A, “Clioquinol for the treatment of Parkinson's disease” (priority 1997, dated 1999)

Test system: vitamin B12 ([^57 Co]-cyanocobalamine) metabolism
Assay: Influence of clioquinol on vitamin B12 in vivo: [57Co]-cyanocobalamine radioactivity in dissected tissues
Parameters: species or system mice
Details: versus control
Method: After three days, all of the mice were injected with [^57 Co]-cyanocobalamine. After two days, the animals were sacrificed, and the brain, liver and kidney were dissected and counted in a gamma-counter as thousand cpm/g tissue (wet weight)±SEM. The radioactivities in each of the groups are stated in Table 1 below: […]

Oc1c(I)cc(Cl)c2cccnc12 [Clioquinol, 5-chloro-7-iodo-8 hydroxyquinoline]
radioactivity accumulation / vitamin B12 concentration in the brain and the liver, in words: remains at a normal level; also recorded: no significant changes in the amount of radioactivity accumulation in the brain and the liver

Entries after “also recorded” stand apart in the source; their conditions may differ.
